Experimental data published in patent US7973043B2, “Combination therapy for depression, prevention of suicide, and various medical and psychiatric conditions” (priority 2002, dated 2011).

Conditions: hypothetical cases

Cc1nc2n(c(=O)c1CCN1CCC(c3noc4cc(F)ccc34)CC1)CCCC2 [risperidone]
adverse effect: galactorhoea
